Results from US4395399A, “Glycopeptides and method for preparing same” (Institut Bioorganicheskoi Khimii Imeni M.M. Shemyakina …, priority 1977, dated 1983).

Tested on: 8-day Krocker sarcoma (S-180)
Settings: intravenous, mice with sarcoma S-180

Row | Substance | Death of animals (dose 250 mg/kg) | Death of animals (dose 50 mg/kg) | Death of animals (dose 100 mg/kg)
1 | Amide of N^ε [Alanyl-D-glutamyl-D-iso-asparaginyl]-lysyl-D-alanine [XII] | 0 | – | –
2 | amide of N^ε -[N-acetylglucosaminyl/1→4/N-acetylmuramyl-alanyl-D-glutamyl-D-iso- asparaginyl]-lysyl-D-alanine [IV] | – | 0 | 0

Where two headings read alike, the source gives them in different places.
